For this assay, the target named is T1, 5-Lipoxygenase (Rattus norvegicus, UniProt P12527).
T1 construct: host or cells: RBL-1 (rat basophilic leukemia)
T1 sequence (P12527 1-673): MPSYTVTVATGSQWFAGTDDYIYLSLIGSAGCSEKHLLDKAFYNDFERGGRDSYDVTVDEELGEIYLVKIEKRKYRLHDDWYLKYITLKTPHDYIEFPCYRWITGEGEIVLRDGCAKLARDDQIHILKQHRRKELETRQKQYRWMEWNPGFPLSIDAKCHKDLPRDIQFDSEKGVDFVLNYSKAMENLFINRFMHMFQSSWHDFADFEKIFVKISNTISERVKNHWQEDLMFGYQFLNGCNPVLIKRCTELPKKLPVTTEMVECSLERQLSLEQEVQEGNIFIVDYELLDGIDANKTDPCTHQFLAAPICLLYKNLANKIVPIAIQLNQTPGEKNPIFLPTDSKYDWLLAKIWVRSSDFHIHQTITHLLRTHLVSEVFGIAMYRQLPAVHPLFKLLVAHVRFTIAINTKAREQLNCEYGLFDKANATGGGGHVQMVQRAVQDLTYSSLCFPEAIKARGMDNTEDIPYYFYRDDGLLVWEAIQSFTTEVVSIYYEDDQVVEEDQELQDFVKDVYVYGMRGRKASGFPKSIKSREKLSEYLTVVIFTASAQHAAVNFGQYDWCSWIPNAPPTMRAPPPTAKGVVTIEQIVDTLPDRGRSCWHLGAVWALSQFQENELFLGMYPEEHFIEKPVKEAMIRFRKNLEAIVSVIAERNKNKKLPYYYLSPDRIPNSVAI
In words: ARBL whole cell 5-lipoxygenase assay (LTB4 formation in RBL-1 cells, A23187-stimulated). The class given is cell-based. The following applies: Table 2. Here is the method:
The rat basophilic leukemia cell line (RBL-1) was obtained from the American Type Culture Collection (Rockville, Md.).
Radioimmunoassay (RIA) kits of LTB4 and PGF2α were obtained from Amersham (Arlington Heights, Ill.) and Seragen (Boston, Mass.), respectively.
RBL-1 cells are grown in suspension culture in Eagle's minimum essential medium supplemented with 12% fetal bovine serum at 37° C. in an incubator supplied with air-5% carbon dioxide. Cells are harvested by centrifugation. They are washed with cold phosphate buffered saline pH 7.4 (PBS; NaCl, 7.1 g; Na2 HPO4, 1.15 g; KH2 PO4, 0.2 g; and KCl, 0.2 g/l). Cells are finally suspended in PBS containing 1.0 mM calcium at a density of 2×10^6 cells/ml. Cells are incubated with and without test agent (in DMSO) (1% DMSO is without effect on arachidonic acid metabolism) for ten minutes at room temperature. Calcium ionophore A23187 (5 μM) is added and cells are incubated for seven minutes at 37° C. The reaction is stopped by chilling the tubes on ice for ten minutes. Cells are separated by centrifugation and the supernatant is stored at -20°. Aliquots (100 μl) are analyzed for LTB4 and PGF2α using radioimmunoassay kits as provided by the supplier. […]

Experimental findings from patent publication US5462952A, “Fenamate 1,3,4-thiadiazoles and 1,3,4-oxadiazoles as antiinflammatory agents” (Warner-Lambert Company, priority 1993, dated 1995) are described below.

In the case of `N#CNc1nnc(-c2ccccc2Nc2cccc(C(F)(F)F)c2)o1` [Example 26, 5-[2-[[3-(Trifluoromethyl)phenyl]amino]phenyl]-1,3,4-oxadiazol-2-yl-cyanamide], the IC50 stood at 2990 nM.
